Our source for the inhibition values is PubChem BioAssay AID2178 (The Scripps Research Institute Molecular Screening Center, 2009).

Sequences of proteins named here, by UniProt entry; tags and fusion partners are left off.
UniProt P07711, whole entry: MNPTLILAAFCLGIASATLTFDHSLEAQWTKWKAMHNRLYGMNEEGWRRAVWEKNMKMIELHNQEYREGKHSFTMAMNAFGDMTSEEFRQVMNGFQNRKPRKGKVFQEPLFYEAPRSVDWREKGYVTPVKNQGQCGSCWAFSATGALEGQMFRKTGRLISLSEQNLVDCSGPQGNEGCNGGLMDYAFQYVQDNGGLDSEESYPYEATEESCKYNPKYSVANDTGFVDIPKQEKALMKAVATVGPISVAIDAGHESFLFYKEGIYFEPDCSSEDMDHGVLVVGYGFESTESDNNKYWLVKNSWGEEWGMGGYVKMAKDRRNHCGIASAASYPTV

What is called inhibition is the relative decrease from the control value, in per cent.

The structures appear in SMILES notation. This is a selection; strong and weak results do not stand in their true shares. Active and inactive are the calls of the source.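 The calls were made as follows: active = average inhibition across replicates above the hit cutoff set in the earlier primary screen; inactive = the rest.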

In this assay the target is Procathepsin L (Homo sapiens) (UniProt P07711). Put plainly: cathepsin L1 inhibitors, retest, confirmation, counter-screen for PFM18AAP inhibitor project, biochemical, QFRET, triplicate (AID 2178).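 Also: 0% = median of test compound wells and 100% = Z-Phe-Ala-diazomethylketone 1 µM.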 The settings on record: purified cathepsin L1, Z-Leu-Arg-MCA fluorescence; at 5.96 µM; hits give high values. Summed up:
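Test system: purified recombinant cathepsin L1 enzyme; measure: percent inhibition from fluorescence change; benchmarks: Z-Phe-Ala-diazomethylketone control wells; also added: Z-Leu-Arg-MCA fluorogenic substrate; incubation: 30 min compound preincubation, then 90 min with substrate, 25 °C; repeats: triplicate; measured by: fluorescence of released MCA at 0 and 90 min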
Background: The purpose of a counterscreen is to sort out artefacts and off-target activity.
Turning to `Cc1nc2ccc3ccccc3c2o1.O=[N+]([O-])c1cc([N+](=O)[O-])c(O)c([N+](=O)[O-])c1`, the inhibition is inactive: 2.94%.

As to `CP(=S)(Nn1cnnc1)Oc1ccccc1` (configuration not stated), the inhibition is inactive: -1.71%.
